Reference: ChEMBL document CHEMBL1128368, “Synthesis and serotonergic activity of N,N-dimethyl-2-[5-(1,2,4-triazol-1-ylmethyl)-1H-indol-3-yl]ethylamine and analogues: potent agonists for 5-HT1D receptors” (J Med Chem, 1995)

Protein sequences, listed by entry. Tags and fused reporters are not part of them.
UniProt P14842, whole entry: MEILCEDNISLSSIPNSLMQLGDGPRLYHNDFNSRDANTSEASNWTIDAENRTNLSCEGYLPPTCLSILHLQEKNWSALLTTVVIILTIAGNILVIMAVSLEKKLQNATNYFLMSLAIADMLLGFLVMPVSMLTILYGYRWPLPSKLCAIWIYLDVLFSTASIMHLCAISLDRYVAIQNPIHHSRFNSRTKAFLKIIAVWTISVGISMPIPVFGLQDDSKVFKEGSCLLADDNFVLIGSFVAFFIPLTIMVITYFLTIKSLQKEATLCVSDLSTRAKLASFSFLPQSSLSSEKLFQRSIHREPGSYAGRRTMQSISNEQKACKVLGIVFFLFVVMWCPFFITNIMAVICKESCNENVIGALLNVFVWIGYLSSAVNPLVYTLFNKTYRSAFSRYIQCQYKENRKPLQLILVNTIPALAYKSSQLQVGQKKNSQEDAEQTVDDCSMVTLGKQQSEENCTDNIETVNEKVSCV
UniProt P08908, whole entry: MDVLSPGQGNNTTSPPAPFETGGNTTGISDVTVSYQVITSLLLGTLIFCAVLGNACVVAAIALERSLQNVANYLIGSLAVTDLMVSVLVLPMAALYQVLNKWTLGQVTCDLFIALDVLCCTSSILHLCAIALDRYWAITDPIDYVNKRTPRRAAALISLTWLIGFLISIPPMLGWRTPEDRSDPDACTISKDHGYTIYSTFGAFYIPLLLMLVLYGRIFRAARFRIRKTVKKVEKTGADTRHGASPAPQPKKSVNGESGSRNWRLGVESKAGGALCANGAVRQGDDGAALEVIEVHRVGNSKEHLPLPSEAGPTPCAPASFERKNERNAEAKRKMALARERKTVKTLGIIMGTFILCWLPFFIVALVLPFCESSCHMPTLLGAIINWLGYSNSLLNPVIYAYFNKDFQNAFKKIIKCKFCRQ

Legend:
[1] = molecular target: 5-hydroxytryptamine receptor 2A (Rattus norvegicus, UniProt P14842); test: (§1) Binding activity radioligand.
[2] = molecular target: 5-hydroxytryptamine receptor 1A (Homo sapiens, UniProt P08908); test: as §1

## CNS(=O)(=O)Cc1ccc2[nH]cc(CCN(C)C)c2c1
[1]
  IC50: > 10000 nM
[2]
  IC50: 398 nM
